According to IntAct's records for PubMed 30126976:

B1: COP9 signalosome complex subunit 1 (Homo sapiens), Q13098 (parent)
chain: MPLPVQVFNLQGAVEPMQIDVDPQEDPQNAPDVNYVVENPSLDLEQYAASYSGLMRIERLQFIADHCPTLRVEALKMALSFVQRTFNVDMYEEIHRKLSEATRSSLRELQNAPDAIPESGVEPPALDTAWVEATRKKALLKLEKLDTDLKNYKGNSIKESIRRGHDDLGDHYLDCGDLSNALKCYSRARDYCTSAKHVINMCLNVIKVSVYLQNWSHVLSYVSKAESTPEIAEQRGERDSQTQAILTKLKCAAGLAELAARKYKQAAKCLLLASFDHCDFPELLSPSNVAIYGGLCALATFDRQELQRNVISSSSFKLFLELEPQVRDIIFKFYESKYASCLKMLDEMKDNLLLDMYLAPHVRTLYTQIRNRALIQYFSPYVSADMHRMAAAFNTTVAALEDELTQLILEGLISARVDSHSKILYARDVDQRSTTFEKSLLMGKEFQRRAKAMMLRAAVLRNQIHVKSPPREGSQGELTPANSQSRMSTNM
B2: Proline-rich protein 5 (Homo sapiens), P85299 (parent)
chain: MRTLRRLKFMSSPSLSDLGKREPAAAADERGTQQRRACANATWNSIHNGVIAVFQRKGLPDQELFSLNEGVRQLLKTELGSFFTEYLQNQLLTKGMVILRDKIRFYEGQKLLDSLAETWDFFFSDVLPMLQAIFYPVQGKEPSVRQLALLHFRNAITLSVKLEDALARAHARVPPAIVQMLLVLQGVHESRGVTEDYLRLETLVQKVVSPYLGTYGLHSSEGPFTHSCILEKRLLRRSRSGDVLAKNPVVRSKSYNTPLLNPVQEHEAEGAAAGGTSIRRHSVSEMTSCPEPQGFSDPPGQGPTGTFRSSPAPHSGPCPSRLYPTTQPPEQGLDPTRSSLPRSSPENLVDQILESVDSDSEGIFIDFGRGRGSGMSDLEGSGGRQSVV

Variants of: B1
Settings: with scrib_human SCRIB

| Variant | effect of a mutation on the interaction |
| --- | --- |
| MPLPVQVFNLQGAVEPMQIDVDPQEDPQNAPDVNYVVENPSLDLEQYAASYSGLMRIERLQFIADHCPTLRVEALKMALSFVQRTFNVDMYEEIHRKLSEATRSSLRELQNAPDAIPESGVEPPALDTAWVEATRKKALLKLEKLDTDLKNYKGNSIKESIRRGHDDLGDHYLDCGDLSNALKCYSRARDYCTSAKHVINMCLNVIKVSVYLQNWSHVLSYVSKAESTPEIAEQRGERDSQTQAILTKLKCAAGLAELAARKYKQAAKCLLLASFDHCDFPELLSPSNVAIYGGLCALATFDRQELQRNVISSSSFKLFLELEPQVRDIIFKFYESKYASCLKMLDEMKDNLLLDMYLAPHVRTLYTQIRNRALIQYFSPYVSADMHRMAAAFNTTVAALEDELTQLILEGLISARVDSHSKILYARDVDQRSTTFEKSLLMGKEFQRRAKAMMLRAAVLRNQIHVKSPPREGSQGELTPANSQSRMETNM [S488E] | causing an interaction |

Variants of: B2
Settings: with dlg1_human DLG1, Q12959

| Variant | effect of a mutation on the interaction |
| --- | --- |
| MRTLRRLKFMSSPSLSDLGKREPAAAADERGTQQRRACANATWNSIHNGVIAVFQRKGLPDQELFSLNEGVRQLLKTELGSFFTEYLQNQLLTKGMVILRDKIRFYEGQKLLDSLAETWDFFFSDVLPMLQAIFYPVQGKEPSVRQLALLHFRNAITLSVKLEDALARAHARVPPAIVQMLLVLQGVHESRGVTEDYLRLETLVQKVVSPYLGTYGLHSSEGPFTHSCILEKRLLRRSRSGDVLAKNPVVRSKSYNTPLLNPVQEHEAEGAAAGGTSIRRHSVSEMTSCPEPQGFSDPPGQGPTGTFRSSPAPHSGPCPSRLYPTTQPPEQGLDPTRSSLPRSSPENLVDQILESVDSDSEGIFIDFGRGRGSGMSDLEGEGGRQSVV [S381E] | decreasing interaction strength |
